The values that follow are results of earlier work, collected in patent publication US20230104692A1, “DMEU ENHANCER” (priority 2020, published 2023).

One may read the logP as the decadic logarithm of the partition coefficient of the neutral form, usually between octanol and water.

For this data set the following is noted: cited from earlier work.

Consider `Cc1cc2c(s1)Nc1ccccc1N=C2N1CCN(C)CC1` [Olanzapine], for which the logP is recorded as 4.1.
